Biological target: active mouse PAI-1 (Mus musculus (Mouse), UniProt P22777)
Experiment: Ex vivo plasma Luminex assay, mouse plasma spiked with active mouse PAI-1
Type: biochemical
Details: mouse plasma spiked with active mouse PAI-1 3-4 ng/mL

The chains behind the UniProt entries cited, without tags or fusion partners. Residues count along the entry.
UniProt P22777, 23-402: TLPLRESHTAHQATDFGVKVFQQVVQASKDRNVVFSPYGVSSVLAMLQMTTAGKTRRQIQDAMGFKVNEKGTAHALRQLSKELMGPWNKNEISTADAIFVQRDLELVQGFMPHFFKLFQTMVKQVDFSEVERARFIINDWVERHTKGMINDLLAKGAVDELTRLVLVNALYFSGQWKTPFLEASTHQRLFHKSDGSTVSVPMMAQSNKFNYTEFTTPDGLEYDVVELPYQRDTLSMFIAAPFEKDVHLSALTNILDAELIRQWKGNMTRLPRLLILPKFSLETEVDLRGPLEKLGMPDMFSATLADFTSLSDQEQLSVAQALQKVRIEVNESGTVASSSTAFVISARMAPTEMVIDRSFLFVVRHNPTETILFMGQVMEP

| IC50 [µM] | SMILES |
| --- | --- |
| 82 | O=C(OC[C@H]1OC(OC(=O)c2cc(O)c(O)c(O)c2)[C@H](OC(=O)c2cc(O)c(O)c(O)c2)[C@@H](OC(=O)c2cc(O)c(O)c(O)c2)[C@@H]1OC(=O)c1cc(O)c(O)c(O)c1)c1cc(O)c(O)c(O)c1 (some centres unmarked) [CDE-001] |
| 123 | O=C(OC[C@H]1O[C@@H](OC(=O)c2cc(O)c(O)c(O)c2)[C@@H](OC(=O)c2cc(O)c(O)c(O)c2)[C@@H](OC(=O)c2cc(O)c(O)c(O)c2)[C@@H]1OC(=O)c1cc(O)c(O)c(O)c1)c1cc(O)c(O)c(O)c1 [CDE-002] |
| 100 | O=C(OC[C@H]1O[C@H](OC(=O)c2cc(O)c(O)c(O)c2)[C@H](OC(=O)c2cc(O)c(O)c(O)c2)[C@@H](OC(=O)c2cc(O)c(O)c(O)c2)[C@H]1OC(=O)c1cc(O)c(O)c(O)c1)c1cc(O)c(O)c(O)c1 [CDE-003] |
| 133 | O=C(OC[C@H]1O[C@@H](OC(=O)c2cc(O)c(O)c(O)c2)[C@H](OC(=O)c2cc(O)c(O)c(O)c2)[C@@H](OC(=O)c2cc(O)c(O)c(O)c2)[C@H]1OC(=O)c1cc(O)c(O)c(O)c1)c1cc(O)c(O)c(O)c1 [CDE-004] |
| 63.2 | O=C(OC[C@H]1OC(OC(=O)c2cc(O)c(O)c(O)c2)[C@H](OC(=O)c2cc(O)c(O)c(O)c2)[C@@H](OC(=O)c2cc(O)c(O)c(O)c2)[C@H]1OC(=O)c1cc(O)c(O)c(O)c1)c1cc(O)c(O)c(O)c1 (some centres unmarked) [CDE-066] |
